From patent US8497349B2, “Use of multivalent synthetic ligands of surface nucleolin for treating cancer or inflammation” (Centre National de la Recherche Scientifique (CNRS), priority 2006, dated 2013)
Like-named read-outs stand apart in the source and are kept apart here.

What was measured:
[1] = tested on: endothelial cells (CD31+, factor VIII+) in matrigel; assay: In vivo angiogenesis model (matrigel plug assay); set-up: species or system mice; conditions: subcutaneous matrigel, one week
Procedure: FIG. 8. Effect of HB-19 on angiogenesis. A. Effect of HB19 tested on in vitro proliferation of HUVEC cells. 20000 HUVEC cells were cultured in wells and compound HB19 was added in different concentrations on each day. Cells were counted after 6 days of treatment. B. Effect of HB19 (1 μM) on the differentiation of HUVEC cells in a three-dimensional collagen gel cultured in the presence of HARP angiogenic factors (1 nM); VEGF (1 nM) and FGF-2 (3 nM) were also tested. After 4 days, tubular network structures were counted. The results are presented in arbitrary units. C. Effect of HB-19 on angiogenesis triggered HARP or FGF-2 in an in vivo angiogenesis model (/matrigel <<plug assay>>). Matrigel (300 μl) containing the indicated molecules is injected subcutaneously into mice. Mice were sacrificed after one week and matrigel was removed. 8 μm thick cuts were performed. After staining, the number of endothelial cells is estimated by image analysis. For each matrigel, 5 cuts and 4 mice were analysed per experimental point.
This experimental model of angiogenesis consists in subcutaneously injecting mice with matrigel containing the substance to be analysed for its angiogenesis stimulating or inhibiting properties. Matrigel was removed one week later, histological cuts were taken and the number of endothelial cells (CD31+, factor VIII+) was quantified by image analysis after immunohistochemistry.

NIH-3T3 cells = format: cell-based
Procedure: FIG. 3. Effect of A. anti-nucleolin (anti Nu), B. isotypical IgG, C. peptide F3, and D. HB-19 on the proliferation of NIH-3T3 cells stimulated by HARP. Quiescent NIH-3T3 cells are stimulated or not by 4 nM of HARP in the presence or not of HB19 at the concentrations indicated. After 24 hours of incubation, cell proliferation was determined by measuring the incorporation of tritiated thymidine. The results are given as a percentage with respect to the control stimulated by HARP (100%). MSD (threshold), (**p<0.01 and ***p<0.001).
FIG. 4. Effect of pretreatment of NIH-3T3 cells with HB19 for one hour on proliferation induced by HARP. NIH-3T3 cells were treated with HB19 for one hour then washed and stimulated or not by 3.6 nM of HARP. After 24 hours of incubation, cell proliferation was determined by measuring the incorporation of tritiated thymidine. The results are given as a percentage with respect to the control stimulated by HARP (100%). MSD (threshold), (**p<0.01 and ***p<0.001).
FIG. 12. Effect of HB-19 and Nucant 01 on the growth of NIH-3T3 cells stimulated by HARP. Quiescent NIH-3T3 cells were stimulated or not by 4 nM of HARP in the presence of HB19 or Nucant 01 at the concentrations indicated. After 24 hours of incubation, cell proliferation was determined by measuring the incorporation of tritiated thymidine. The results (mean of 3 points) are given as the percentage of cell proliferation with respect to the control stimulated by HARP in the absence of HB19 and Nucant 01 (100% cell proliferation).
FIG. 13. Effect of HB-19, Nucant 2 and Nucant 3 on the growth of NIH-3T3 cells stimulated by HARP. Quiescent NIH-3T3 cells were stimulated or not by 4 nM of HARP in the presence of HB19, Nucant 2 or Nucant 3 at the concentrations indicated (0.1, 0.25 and 0.5>M). After 24 hours of incubation, cell proliferation of NIH-3T3 cells was determined by measuring the incorporation of tritiated thymidine. The results (mean of 3 points) are given as the percentage of cell proliferation with respect to the control stimulated by HARP (100% cell proliferation). The IC50 concentrations (concentration leading to 50% inhibition of cell proliferation with respect to the control stimulated by HARP) are also given.
The role played by nucleolin in the biological activity of the HARP molecule was studied in a series of experiments: the mitogenic activity of HARP, tested by measuring the incorporation of tritiated thymidine by NIH 3T3 cells, was evaluated in the presence or absence of a monoclonal antibody which specifically recognizes nucleolin.
The effect of Nucant 01 on the proliferation of NIH-3T3 cells stimulated by HARP was compared with that of pentavalent compound HB-19. Quiescent NIH-3T3 cells were stimulated or not by 4 nM of HARP in the presence of HB19 or Nucant 01 at the concentrations indicated (0.1, 0.2, 0.4, 1, 2 and 4 μM). After 24 hours of incubation, cell proliferation of NIH-3T3 cells was determined by measuring the incorporation tritiated thymidine as described earlier.
The effect of Nucant 2 and Nucant 3 on the proliferation NIH-3T3 cells triggered by HARP was compared to that of pentavalent compound HB-19. Quiescent NIH-3T3 cells were stimulated or not by 4 nM by HARP in the presence of HB19, Nucant 2, or Nucant 3 at the concentrations indicated (0.1, 0.25 and 0.5 μM). After 24 hours of incubation, cell proliferation of NIH-3T3 cells was determined by measuring the incorporation tritiated thymidine as described earlier.

SMILES: CCCC[C@H](NC(=O)[C@H](CCCCNC(=O)[C@H](CCCNC(=N)N)NC(=O)[C@@H]1CCCN1C[C@@H](N)CCCCN)NC(=O)[C@H](CCC(=O)O)NC(=O)[C@H](CCCCNC(=O)[C@H](CCCNC(=N)N)NC(=O)[C@@H]1CCCN1C[C@@H](N)CCCCN)NC(=O)[C@@H]1CCCN1C(=O)CNC(=O)[C@H](CCCCNC(=O)[C@H](CCCNC(=N)N)NC(=O)[C@@H]1CCCN1C[C@@H](N)CCCCN)NC(=O)[C@H](CCCCN)NC(=O)[C@H](CCCCNC(=O)[C@H](CCCNC(=N)N)NC(=O)[C@@H]1CCCN1C[C@@H](N)CCCCN)NC(=O)[C@H](CCCNC(=N)N)NC(=O)[C@@H]1CCCN1C[C@@H](N)CCCCN)C(N)=O [HB19, 5[Kpsi(CH2N)PR]-TASP]
- angiogenesis triggered by HARP or FGF-2 [1]: inhibits angiogenesis
- recruitment of endothelial cells in matrigel, compound alone ([1]; no angiogenic factor): no effect
- IC50 (NIH-3T3 cells; 4 nM HARP, experiment of FIG. 12, read-out: concentration leading to 50% inhibition of cell proliferation): 200 nM
- inhibition of the effect triggered by 4 nM of HARP (NIH-3T3 cells; 0.5 μM of HB-19, 24 hours): 81%
- IC50 (NIH-3T3 cells; 24 h): 100 nM
- inhibition of HARP-induced proliferation after pretreatment (NIH-3T3 cells; cells pretreated for one hour, washed, then stimulated by HARP): comparable inhibition
